Experimental data taken from patent publication US5491132A.

Chains of the proteins cited; added tags and fusions are not shown. Residues count along the entry.
UniProt P00797, 67-406 limits assumed: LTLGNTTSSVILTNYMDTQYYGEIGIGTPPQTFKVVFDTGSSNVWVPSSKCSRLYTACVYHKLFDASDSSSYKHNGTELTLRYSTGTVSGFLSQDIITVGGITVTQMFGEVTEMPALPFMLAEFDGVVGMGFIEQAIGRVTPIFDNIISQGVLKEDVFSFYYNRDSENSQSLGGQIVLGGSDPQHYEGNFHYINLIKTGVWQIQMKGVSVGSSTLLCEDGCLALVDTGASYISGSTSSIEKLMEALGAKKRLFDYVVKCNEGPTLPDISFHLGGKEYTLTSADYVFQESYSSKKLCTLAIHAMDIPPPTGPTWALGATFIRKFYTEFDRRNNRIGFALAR

Molecular target: renin (Homo sapiens, UniProt P00797)
Experiment: Inhibition of human plasma renin activity (angiotensin I formation, RIA)
Details: pooled human plasma, endogenous renin and angiotensinogen, pH 6.0, 37° C., 90 minutes incubation, Ang I measured by RIA; Probit method; tested form: HCl
Method: Human plasma was collected from male volunteers pretreated with no drugs and used as a pool. Disodium salt of ethylenediaminetetraacetic acid (EDTA) was used as the anticoagulant. Plasma renin activity was measured as the rate of angiotensin I (Ang I) formation after incubation (37° C.) of the endogenous renin and angiotensinogen in plasma at pH 6.0. The incubation mixture contained 250 μl of plasma, 5 μl of (phenylmethyl)sulfonyl fluoride, 30 μl of buffer (sodium, potassium-phosphate, pH 6.0), and 15 μl of an appropriate concentration of test compound in 50% ethyl alcohol-water vehicle. The Ang I formed after 90 minutes of incubation was measured by radioimmunoassay (RIA) which was carried out with a commercial kit, RENIN.RIABEAD (Trademark: manufactured by Dainabot Co., Ltd.). Samples were incubated in duplicate and each tube was measured in duplicate in the RIA. Percentage inhibition of plasma renin activity was calculated by comparing the amount of Ang I produced with and without a test compound. The concentration of test compound that inhibited plasma renin activity by 50% (IC50) was determined by Probit method.

Row | SMILES | IC50
1 | CC(C)CC[C@H](O)[C@H](CC1CCCCC1)NC(=O)[C@H](Cc1c[nH]cn1)N(C)C(=O)[C@H](Cc1ccccc1)NC(=O)N(C)CCN(C)C(=O)N1CCc2ccccc2C1 | 3.9 nM
2 | CCC(CC)C[C@H](O)[C@H](CC1CCCCC1)NC(=O)[C@H](Cc1c[nH]cn1)N(C)C(=O)[C@H](Cc1ccccc1)NC(=O)N(C)CCN(C)C(=O)N1CCOCC1 | 0.3 nM
3 | CN(CCN(C)C(=O)N1CCSCC1)C(=O)N[C@@H](Cc1ccccc1)C(=O)N(C)[C@@H](Cc1c[nH]cn1)C(=O)N[C@@H](CC1CCCCC1)[C@@H](O)CC1CCCCC1 | 0.72 nM
4 | CCCN(CCC)C(=O)N(C)CCN(C)C(=O)N[C@@H](Cc1ccccc1)C(=O)N(C)[C@@H](Cc1c[nH]cn1)C(=O)N[C@@H](CC1CCCCC1)[C@@H](O)CCC(C)C | 0.38 nM
5 | CC(C)C[C@H](O)[C@H](CC1CCCCC1)NC(=O)[C@H](Cc1c[nH]cn1)N(C)C(=O)[C@H](Cc1ccccc1)OC(=O)N(C)CCN(C)C(=O)N1CCOCC1 | 3.1 nM
6 | CCC(CC)C[C@H](O)[C@H](CC1CCCCC1)NC(=O)[C@H](Cc1c[nH]cn1)N(C)C(=O)[C@H](Cc1ccccc1)NC(=O)N(C)CCC(=O)N1CCOCC1 | 1.7 nM
7 | CC(C)CC[C@H](O)[C@H](CC1CCCCC1)NC(=O)[C@H](Cc1c[nH]cn1)N(C)C(=O)[C@H](Cc1ccccc1)NC(=O)N(C)CCN(C)C(=O)N1CCSCC1 | 0.29 nM
8 | CC(C)C[C@H](O)[C@H](CC1CCCCC1)NC(=O)[C@H](Cc1c[nH]cn1)N(C)C(=O)[C@H](Cc1ccccc1)NC(=O)N(C)CCN(C)C(=O)N1CCOCC1 | 0.47 nM
9 | CC(C)CC[C@H](O)[C@H](CC1CCCCC1)NC(=O)[C@H](Cc1c[nH]cn1)N(C)C(=O)[C@H](Cc1ccccc1)NC(=O)N(C)CCN(C)C(=O)N1CCCCC1 | 1 nM
10 | CCC(CC)C[C@H](O)[C@H](CC1CCCCC1)NC(=O)[C@H](Cc1c[nH]cn1)N(C)C(=O)[C@H](Cc1ccccc1)OC(=O)N(C)CCN(C)C(=O)N1CCSCC1 | 3.9 nM
11 | CC(C)C[C@H](O)[C@H](CC1CCCCC1)NC(=O)[C@H](Cc1c[nH]cn1)N(C)C(=O)[C@H](Cc1ccccc1)NC(=O)N(C)CCN(C)C(=O)N1CCSCC1 | 0.079 nM
